Assay results published in patent publication US10196393B2, “JAK inhibitors containing a 4-membered heterocyclic amide” (THERAVANCE BIOPHARMA R&D IP, LLC, priority 2017, dated 2019).

Chains of the proteins cited; added tags and fusions are not shown. Lines headed by an entry give the natural chain unless they say otherwise; changes in a name come on top.
UniProt P52333: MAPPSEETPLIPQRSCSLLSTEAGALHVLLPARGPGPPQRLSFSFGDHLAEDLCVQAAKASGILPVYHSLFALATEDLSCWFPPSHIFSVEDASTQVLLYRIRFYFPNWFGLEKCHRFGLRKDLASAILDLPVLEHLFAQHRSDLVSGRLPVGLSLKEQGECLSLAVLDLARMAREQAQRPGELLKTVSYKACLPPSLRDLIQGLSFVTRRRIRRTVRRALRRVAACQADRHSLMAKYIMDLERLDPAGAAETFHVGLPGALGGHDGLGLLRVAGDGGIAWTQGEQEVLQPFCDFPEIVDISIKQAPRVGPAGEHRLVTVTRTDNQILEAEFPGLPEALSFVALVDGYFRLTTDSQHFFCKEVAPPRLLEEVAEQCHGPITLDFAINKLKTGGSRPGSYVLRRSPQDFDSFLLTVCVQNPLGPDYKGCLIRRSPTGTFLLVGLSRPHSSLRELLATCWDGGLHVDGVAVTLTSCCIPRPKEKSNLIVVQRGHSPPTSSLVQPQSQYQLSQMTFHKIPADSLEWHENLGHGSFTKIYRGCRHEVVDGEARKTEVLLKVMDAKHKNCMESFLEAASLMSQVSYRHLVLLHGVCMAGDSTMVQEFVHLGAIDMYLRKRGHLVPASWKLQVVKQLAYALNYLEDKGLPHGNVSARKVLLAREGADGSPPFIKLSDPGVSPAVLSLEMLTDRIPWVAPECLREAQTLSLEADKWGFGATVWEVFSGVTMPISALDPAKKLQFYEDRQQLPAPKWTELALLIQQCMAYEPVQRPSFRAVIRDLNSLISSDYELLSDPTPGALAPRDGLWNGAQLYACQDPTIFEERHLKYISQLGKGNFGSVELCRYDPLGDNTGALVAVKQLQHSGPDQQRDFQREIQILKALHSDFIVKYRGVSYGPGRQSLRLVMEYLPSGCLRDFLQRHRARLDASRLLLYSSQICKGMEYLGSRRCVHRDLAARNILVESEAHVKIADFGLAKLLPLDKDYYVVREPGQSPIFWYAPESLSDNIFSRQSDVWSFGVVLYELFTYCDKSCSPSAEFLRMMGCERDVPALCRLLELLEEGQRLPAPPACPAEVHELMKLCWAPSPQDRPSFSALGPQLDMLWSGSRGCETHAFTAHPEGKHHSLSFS
UniProt P29597: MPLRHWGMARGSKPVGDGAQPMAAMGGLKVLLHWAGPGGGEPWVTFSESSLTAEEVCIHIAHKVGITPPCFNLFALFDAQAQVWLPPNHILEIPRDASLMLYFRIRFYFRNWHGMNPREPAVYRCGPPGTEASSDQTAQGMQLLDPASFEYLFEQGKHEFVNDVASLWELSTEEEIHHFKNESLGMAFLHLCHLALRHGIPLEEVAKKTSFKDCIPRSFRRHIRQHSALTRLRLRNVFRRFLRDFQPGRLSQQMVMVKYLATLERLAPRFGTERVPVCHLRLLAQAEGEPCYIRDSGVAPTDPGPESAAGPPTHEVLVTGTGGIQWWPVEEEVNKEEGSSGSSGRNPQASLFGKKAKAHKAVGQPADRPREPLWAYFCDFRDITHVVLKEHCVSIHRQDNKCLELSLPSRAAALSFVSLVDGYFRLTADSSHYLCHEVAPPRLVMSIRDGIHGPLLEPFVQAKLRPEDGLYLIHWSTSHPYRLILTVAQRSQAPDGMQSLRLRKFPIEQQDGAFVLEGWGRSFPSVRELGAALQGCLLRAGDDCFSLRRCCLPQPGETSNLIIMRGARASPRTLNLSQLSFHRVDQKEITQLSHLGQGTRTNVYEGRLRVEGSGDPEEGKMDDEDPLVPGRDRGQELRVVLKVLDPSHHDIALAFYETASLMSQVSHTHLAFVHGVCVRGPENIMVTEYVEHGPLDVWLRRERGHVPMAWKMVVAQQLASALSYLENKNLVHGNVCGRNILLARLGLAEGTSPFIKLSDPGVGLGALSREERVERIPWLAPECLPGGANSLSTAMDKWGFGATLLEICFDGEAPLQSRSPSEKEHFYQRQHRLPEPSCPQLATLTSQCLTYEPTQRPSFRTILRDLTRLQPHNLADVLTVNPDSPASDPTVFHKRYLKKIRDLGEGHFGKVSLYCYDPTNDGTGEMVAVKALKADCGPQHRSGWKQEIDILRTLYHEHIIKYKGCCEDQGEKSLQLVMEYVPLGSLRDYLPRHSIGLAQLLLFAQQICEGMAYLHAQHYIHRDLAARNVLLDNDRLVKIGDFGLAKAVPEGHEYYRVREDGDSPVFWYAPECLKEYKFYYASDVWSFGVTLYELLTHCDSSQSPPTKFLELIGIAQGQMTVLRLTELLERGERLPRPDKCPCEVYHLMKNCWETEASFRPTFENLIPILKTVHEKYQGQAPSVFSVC
UniProt P23458: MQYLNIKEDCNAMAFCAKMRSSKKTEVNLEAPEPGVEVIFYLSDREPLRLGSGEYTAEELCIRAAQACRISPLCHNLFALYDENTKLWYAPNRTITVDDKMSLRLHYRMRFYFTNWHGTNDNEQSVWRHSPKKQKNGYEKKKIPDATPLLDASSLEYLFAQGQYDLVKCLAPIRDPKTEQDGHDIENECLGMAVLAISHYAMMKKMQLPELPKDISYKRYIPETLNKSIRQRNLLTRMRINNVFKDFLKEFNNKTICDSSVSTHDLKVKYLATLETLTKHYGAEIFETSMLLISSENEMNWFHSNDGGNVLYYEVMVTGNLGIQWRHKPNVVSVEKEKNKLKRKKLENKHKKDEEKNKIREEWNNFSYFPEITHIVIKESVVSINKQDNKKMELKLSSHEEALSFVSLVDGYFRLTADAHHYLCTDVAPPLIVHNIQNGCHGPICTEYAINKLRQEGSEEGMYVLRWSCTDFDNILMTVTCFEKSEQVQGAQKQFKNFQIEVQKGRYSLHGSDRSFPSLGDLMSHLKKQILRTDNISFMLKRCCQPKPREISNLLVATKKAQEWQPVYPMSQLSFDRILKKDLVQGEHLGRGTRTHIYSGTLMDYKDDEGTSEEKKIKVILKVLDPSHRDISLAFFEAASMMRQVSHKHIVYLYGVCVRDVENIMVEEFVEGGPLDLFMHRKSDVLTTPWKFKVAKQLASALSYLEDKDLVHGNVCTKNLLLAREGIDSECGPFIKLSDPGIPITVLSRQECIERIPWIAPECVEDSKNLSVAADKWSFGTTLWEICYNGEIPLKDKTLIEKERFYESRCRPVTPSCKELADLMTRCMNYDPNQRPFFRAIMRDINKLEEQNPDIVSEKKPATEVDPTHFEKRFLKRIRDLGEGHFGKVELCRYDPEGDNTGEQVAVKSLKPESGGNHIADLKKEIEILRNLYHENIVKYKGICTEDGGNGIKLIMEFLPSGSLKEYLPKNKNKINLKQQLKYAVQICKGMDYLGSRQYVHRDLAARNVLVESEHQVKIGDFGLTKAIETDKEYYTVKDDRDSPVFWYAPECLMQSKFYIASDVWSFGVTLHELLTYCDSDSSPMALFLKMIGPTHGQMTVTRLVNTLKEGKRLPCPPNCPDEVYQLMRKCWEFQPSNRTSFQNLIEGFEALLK

Legend:
Details in all cases: converted from pIC50 with Cheng-Prusoff equation
JAK3 = JAK3 (Homo sapiens (Human), UniProt P52333); assay: Biochemical JAK kinase assay (LanthaScreen), JAK3
Procedure: (§1) Assay 1: Biochemical JAK Kinase Assays
(§2) A panel of four LanthaScreen JAK biochemical assays (JAK1, 2, 3 and Tyk2) were carried in a common kinase reaction buffer (50 mM HEPES, pH 7.5, 0.01% Brij-35, 10 mM MgCl2, and 1 mM EGTA). Recombinant GST-tagged JAK enzymes and a GFP-tagged STAT1 peptide substrate were obtained from Life Technologies.
(§3) Serially diluted compounds were pre-incubated with each of the four JAK enzymes and the substrate in white 384-well microplates (Corning) at ambient temperature for 1 h. ATP was subsequently added to initiate the kinase reactions in 10 μL total volume, with 1% DMSO. […] The plates were allowed to incubate at ambient temperature for 1 h before being read on the EnVision reader (Perkin Elmer).
(§4) For dose-response analysis, percent inhibition data were plotted vs. compound concentrations, and IC50 values were determined from a 4-parameter robust fit model with the Prism software (GraphPad Software). Results were expressed as pIC50 (negative logarithm of IC50) and subsequently converted to pKi (negative logarithm of dissociation constant, Ki) using the Cheng-Prusoff equation.

Tyk2 = Tyk2 (Homo sapiens (Human), UniProt P29597); assay: Biochemical JAK kinase assay (LanthaScreen), Tyk2
Procedure: as §1, §2, §3, §4

JAK1 = JAK1 (Homo sapiens (Human), UniProt P23458); assay: Biochemical JAK kinase assay (LanthaScreen), JAK1
Procedure: as §1, §2, §3, §4

Structure (SMILES)	Ki (JAK3) [nM]	Ki (Tyk2) [nM]	Ki (JAK1) [nM]
CCc1cc(O)c(F)cc1-c1ccc2c(-c3nc4c([nH]3)CN(CC)[C@@H](C(=O)N3CC(N5CCCCC5)C3)C4)n[nH]c2c1 [Example 8-15]	0.4	0.4	–
CCCN1Cc2[nH]c(-c3n[nH]c4cc(-c5cc(F)c(O)cc5CC)ccc34)nc2C[C@@H]1C(=O)N1CC(C)(N(C)C)C1 [Example 8-19]	0.2	–	0.06
CCc1cc(O)c(F)cc1-c1ccc2c(-c3nc4c([nH]3)CN(CC)[C@H](C(=O)N3CC(N(C)C)C3)C4)n[nH]c2c1 [Example 8-22, (S)-(3-(dimethylamino)azetidin-1-yl)(5-ethyl-2-(6-(2-ethyl-5-fluoro-4-hydroxyphenyl)-1H-indazol-3-yl)-4,5,6,7-tetrahydro-3H-imidazo[4,5-c]pyridin-6-yl)methanone]	–	–	0.06
CCc1cc(O)c(F)cc1-c1ccc2c(-c3nc4c([nH]3)CN(C(C)C)C(C(=O)N3CC(C)(N(C)C)C3)C4)n[nH]c2c1 (stereo not drawn) [Example 8-12]	0.25	–	–
CCCN1Cc2[nH]c(-c3n[nH]c4cc(-c5cc(F)c(O)cc5CC)ccc34)nc2C[C@H]1C(=O)N1CC(C)(N(C)C)C1 [Example 8, (S)-(3-(dimethylamino)-3-methylazetidin-1-yl)(2-(6-(2-ethyl-5-fluoro-4-hydroxyphenyl)-1H-indazol-3-yl)-5-propyl-4,5,6,7-tetrahydro-3H-imidazo[4,5-c]pyridin-6-yl)methanone]	0.16	–	0.06
CCCN1Cc2[nH]c(-c3n[nH]c4cc(-c5cc(F)c(O)cc5CC)ccc34)nc2CC1C(=O)N1CC(C)(N(C)C)C1 (stereo not drawn) [Example 8-11]	0.32	–	0.1
CCc1cc(O)c(F)cc1-c1ccc2c(-c3nc4c([nH]3)CN(C(C)C)[C@H](C(=O)N3CC(N5CCCCC5)C3)C4)n[nH]c2c1 [Example 8-6]	0.25	–	–
CCc1cc(O)c(F)cc1-c1ccc2c(-c3nc4c([nH]3)CN(C)[C@H](C(=O)N3CC(N(C)C)C3)C4)n[nH]c2c1 [Example 8-2]	0.25	–	–
CCc1cc(O)c(F)cc1-c1ccc2c(-c3nc4c([nH]3)CN(C(C)C)[C@@H](C(=O)N3CC(N(C)C)C3)C4)n[nH]c2c1 [Example 8-17]	–	–	0.05
CCc1cc(O)c(F)cc1-c1ccc2c(-c3nc4c([nH]3)CN(CC)[C@H](C(=O)N3CC(N5CCCCC5)C3)C4)n[nH]c2c1 [Example 8-14, (S)-(5-ethyl-2-(6-(2-ethyl-5-fluoro-4-hydroxyphenyl)-1H-indazol-3-yl)-4,5,6,7-tetrahydro-3H-imidazo[4,5-c]pyridin-6-yl)(3-(piperidin-1-yl)azetidin-1-yl)methanone]	0.2	–	–
CCc1cc(O)c(F)cc1-c1ccc2c(-c3nc4c([nH]3)CN(CC)[C@@H](C(=O)N3CC(C)(N(C)C)C3)C4)n[nH]c2c1 [Example 8-21]	0.25	–	0.05
CCCN1Cc2[nH]c(-c3n[nH]c4cc(-c5cc(F)c(O)cc5CC)ccc34)nc2C[C@H]1C(=O)N1CC(N2CCCCC2)C1 [Example 8-5]	–	–	0.08
CCc1cc(O)c(F)cc1-c1ccc2c(-c3nc4c([nH]3)CN(CC)C(C(=O)N3CC(N5CCCCC5)C3)C4)n[nH]c2c1 (racemic) [Example 8-4]	0.13	–	0.06
CCc1cc(O)c(F)cc1-c1ccc2c(-c3nc4c([nH]3)CN(CC)C(C(=O)N3CC(C)(N(C)C)C3)C4)n[nH]c2c1 (stereo not drawn) [Example 8-10]	0.32	–	–
CCc1cc(O)c(F)cc1-c1ccc2c(-c3nc4c([nH]3)CN(CC)[C@H](C(=O)N3CC(C)(N(C)C)C3)C4)n[nH]c2c1 [Example 8-23, (S)-(3-(dimethylamino)-3-methylazetidin-1-yl)(5-ethyl-2-(6-(2-ethyl-5-fluoro-4-hydroxyphenyl)-1H-indazol-3-yl)-4,5,6,7-tetrahydro-3H-imidazo[4,5-c]pyridin-6-yl)methanone]	0.2	–	0.05
CCc1cc(O)c(F)cc1-c1ccc2c(-c3nc4c([nH]3)CN(C)[C@H](C(=O)N3CC(N5CCCCC5)C3)C4)n[nH]c2c1 [Example 8-1]	0.18	–	–
CCc1cc(O)c(F)cc1-c1ccc2c(-c3nc4c([nH]3)CN(CC)[C@@H](C(=O)N3CC(N(C)C)C3)C4)n[nH]c2c1 [Example 8-20]	–	–	0.05
